Laboratory results published in PubChem BioAssay AID540275 (National Center for Advancing Translational Sciences (NCATS), 2011).
The list shows a part of the results, in another mix than the full data. Results filed as inconclusive are left out. Some structures show a salt or complex split into parts, the way the source records it. Active and inactive are the calls of the source. No stated cut-off is given here; in the data, active means activation above about 80%; inconclusive means between about 30% and that limit; inactive means weaker than that.

By UniProt entry, the sequences of proteins in these tests, tags left out.
UniProt Q8NER1, whole entry: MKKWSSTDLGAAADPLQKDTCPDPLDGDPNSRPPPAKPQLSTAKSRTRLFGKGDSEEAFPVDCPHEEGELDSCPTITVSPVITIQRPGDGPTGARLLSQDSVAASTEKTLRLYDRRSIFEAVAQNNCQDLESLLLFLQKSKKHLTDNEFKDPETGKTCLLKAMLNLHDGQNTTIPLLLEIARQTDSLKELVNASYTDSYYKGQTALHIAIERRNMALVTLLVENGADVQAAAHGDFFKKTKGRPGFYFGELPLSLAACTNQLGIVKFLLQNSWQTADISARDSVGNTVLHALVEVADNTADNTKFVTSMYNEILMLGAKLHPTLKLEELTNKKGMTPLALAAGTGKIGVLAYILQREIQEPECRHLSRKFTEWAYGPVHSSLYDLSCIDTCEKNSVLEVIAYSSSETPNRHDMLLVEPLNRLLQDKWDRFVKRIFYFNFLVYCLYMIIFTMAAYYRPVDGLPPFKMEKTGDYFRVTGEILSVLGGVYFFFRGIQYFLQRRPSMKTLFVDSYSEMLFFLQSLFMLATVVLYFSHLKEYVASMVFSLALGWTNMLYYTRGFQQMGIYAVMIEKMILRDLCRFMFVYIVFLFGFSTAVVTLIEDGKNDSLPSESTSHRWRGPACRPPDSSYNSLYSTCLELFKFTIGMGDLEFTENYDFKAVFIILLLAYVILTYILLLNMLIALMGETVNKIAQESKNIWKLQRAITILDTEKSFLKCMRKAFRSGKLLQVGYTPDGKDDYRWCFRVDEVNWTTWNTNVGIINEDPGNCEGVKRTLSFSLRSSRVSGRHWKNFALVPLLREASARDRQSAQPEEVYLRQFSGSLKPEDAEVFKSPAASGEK

Each compound was assayed against Transient receptor potential cation channel subfamily V member 1 (Homo sapiens) (UniProt Q8NER1) (assay: HTS Assay for Compounds that Act as Agonists of the Vanilloid Receptor 1). Details: TRPV1-expressing cells, Fluo-8 calcium influx, agonist mode; at 8.33 µM; hits give high values.
Source text: The transient receptor potential ion channel, family V, number 1, (TRPV1) is one of the most important molecular transducers of painful stimuli and a potential target for analgesic drug development. Although recent clinical trials with orthosteric antagonists have not produced a successful drug because of a hyperthermia side effect and their tendency to block thermal noxious pain, this ion channel is undeniably well placed in the pain pathway, and the idea of blocking pain signals before they enter the CNS is an excellent concept and of proven efficacy when TRPV1 agonists are used. We propose a new approach involving allosteric modulation to impose an activity-dependent constraint within the context of inflammation and tissue damage that would alter the responsiveness of the channel in a way that an orthosteric vanilloid antagonist cannot achieve. We believe that the allosteric modulator approach has not been explored for this target. The main goal of this proposal is to identify additional, new, potent allosteric modulators of TRPV1 that can be used to investigate TRPV1 function. Our recent report provides evidence of proof of concept, but the compounds are just at the edge of utility in terms of potency. […] The question of whether they can be used as analgesic agents is complex, but if suitable compounds are identified then testing for analgesic properties will be conducted. NIH Chemical Genomics Center [NCGC] NIH Molecular Libraries Probe Centers Network [MLPCN] MLPCN Grant: MH089480-1A1 Assay Submitter (PI): Michael Iadarola, National Institute of Dental and Cranofacial Research
Upon TRPV1 activation in TRPV1 cells, the channel opens and extracellular cations flow through the channel into the cytosol. A calcium binding dye (Fluo-8) becomes fluorescent when bound to calcium. This dye is pre-loaded into cells and is used as a marker for calcium influx. The amount of accumulated calcium is precisely quantified using the FDSS kinetic reader and the calcium dye. For the HTS assay, freshly prepared cells are plated at a density of 2000/well in 3 ul medium in 1536-well plates and cultured overnight at 35.5C. Cells will be loaded with 1 ul of the homogeneous calcium dye (ABD Bioquest) at room temperature for 40 to 90 minutes. Plates will be loaded into the FDSS kinetic reader and a 1 sec / cycle for 10 second baseline signal will be measured. Compound library will then be added with a pintool at 23 nl and measured kinetically for 3 minutes. This portion of the read is considered the agonist portion of the screen. Following the 3 minutes of incubation, an on board pipettor will deliver 1 ul of capsaicin for a final concentration equal to the EC20. Signal will be measured kinetically for an additional 2 minutes. This portion of the read is considered the allosteric enhancer portion of the screen. The FDSS reader has a standard filter set capable of measuring calcium bound Fluo-8 (ex=480 and em=520 nm).
Further: 0% is about no effect.

Q: With `CN(C)c1ccc(C(=O)NCC2(N3CCCCC3)CCCCC2)cc1` as the compound, how does the activation read?
A: The activation was inactive: 0.222%.

Q: For `O=C(NCC1(N2CCCCC2)CCCCC1)c1ccco1`, which activation is on record?
A: The activation was inactive: -4.86%.

Q: For `CCN1CCC(Nc2cccc(F)c2)CC1`, which activation is on record?
A: The activation was inactive: -4.38%.

Q: `Fc1ccccc1NC1CCN(Cc2ccccc2)CC1` was tested. Which activation did it give?
A: Its activation is inactive: -1.83%.

Q: `Cc1ccc(C(=O)NCC2(N3CCCCC3)CCCCC2)o1` was tested. Which activation did it give?
A: The activation was inactive: -2.45%.

Q: With `COc1cc(OC)cc(C(=O)NCC2(N3CCCCC3)CCCCC2)c1` as the compound, how does the activation read?
A: The activation was inactive: -3.86%.

Q: For `CCCOc1ccc(C)cc1CN(CCCl)CCCl`, which activation is on record?
A: Its activation is inactive: 3.58%.

Q: Which activation does the source give for `CN1CCC(Nc2ccc(Cl)cc2)CC1` here?
A: Its activation is inactive: 2.34%.

Q: With `CCC(CO)(C(=O)OC1CN2CCC1CC2)c1ccccc1` (stereo not given) as the compound, how does the activation read?
A: The activation was inactive: -0.656%.

Q: `COc1cc(OC)cc(C(=O)NCC2(N3CCOCC3)CCCCC2)c1` was tested. Which activation did it give?
A: Its activation is inactive: 11.2%.

Q: With `COc1cccc(C(=O)N(c2cc(C)cc(C)c2)C2CCN(C(=O)OC(C)(C)C)CC2)c1` as the compound, how does the activation read?
A: Its activation is inactive: -5.69%.

Q: How did the activation turn out when `CCCOc1ccc(C(=O)NCC2(N(C)C)CCCCC2)cc1` was run?
A: The activation was inactive: 0.647%.

Q: `O=C(O)C1(Nc2ccccc2)CCN(Cc2ccccc2)CC1` was tested. Which activation did it give?
A: The activation was inactive: -1.17%.

Q: For `CC(C)(C)OC(=O)N1CCC(Nc2ccccc2)CC1`, which activation is on record?
A: The activation was inactive: 13.4%.

Q: With `CN1CCC(Nc2ccc(F)c(Cl)c2)CC1` as the compound, how does the activation read?
A: Its activation is inactive: 7.21%.

Q: How did the activation turn out when `CCOc1ncccc1C(=O)NCC1(N2CCOCC2)CCCCC1` was run?
A: Its activation is inactive: 12.1%.

Q: `O=C(O)c1cccc(Nc2c([N+](=O)[O-])cc([N+](=O)[O-])cc2[N+](=O)[O-])c1` was tested. Which activation did it give?
A: The activation was inactive: 3.12%.

Q: Which activation does the source give for `CCc1cc(C(=O)NCC2(N3CCCCC3)CCCCC2)sc1C` here?
A: Its activation is inactive: 6.6%.

Q: For `O=C(OC1CN2CCC1CC2)C1c2ccccc2C=Cc2ccccc21` (stereo not given), which activation is on record?
A: Its activation is inactive: -0.0497%.

Q: How did the activation turn out when `N/C(=N\O)c1c(N)no[n+]1[O-]` was run?
A: Its activation is inactive: -1.07%.

Q: For `COc1ccc(C(=O)NCC2(N3CCOCC3)CCCCC2)cc1OC`, which activation is on record?
A: Its activation is inactive: 3.62%.

Q: `O=C(NCC1(N2CCOCC2)CCCCC1)c1cc(Br)ccc1Cl` was tested. Which activation did it give?
A: Its activation is inactive: 24.6%.

Q: How did the activation turn out when `CCCN1CCC(Nc2cc(OC)cc(OC)c2)CC1` was run?
A: Its activation is inactive: 4.19%.

Q: How did the activation turn out when `c1ccc(CN2CCC(Nc3ccccc3)CC2)cc1` was run?
A: The activation was inactive: 4.09%.

Q: With `CN(C)C1(CNC(=O)c2cccc(C#N)c2)CCCCC1` as the compound, how does the activation read?
A: The activation was inactive: -1.98%.

Q: Which activation does the source give for `CCOC(=O)C(CC)C1=NC(C)(C)Cc2ccccc21.O=[N+]([O-])c1cc([N+](=O)[O-])c(O)c([N+](=O)[O-])c1` (stereo not given) here?
A: The activation was inactive: 1.16%.

Q: Which activation does the source give for `CC(C)(C)OC(=O)N1CCC(N(C(=O)c2ccccc2)c2ccc(Cl)cc2)CC1` here?
A: The activation was inactive: 18.5%.

Q: `N#Cc1ccc(C(=O)NCC2(N3CCCCC3)CCCCC2)cc1` was tested. Which activation did it give?
A: Its activation is inactive: -1.05%.

Q: For `CN1CCN(CCOC(=O)C(O)(c2ccccc2)c2ccccc2)CC1`, which activation is on record?
A: Its activation is inactive: -2.55%.

Q: With `CC(C)c1ccc(C(=O)NCC2(N3CCOCC3)CCCCC2)cc1` as the compound, how does the activation read?
A: Its activation is inactive: -5.33%.

Q: For `COc1ccc(NC2CCN(C(=O)OC(C)(C)C)CC2)cc1`, which activation is on record?
A: Its activation is inactive: 4.29%.

Q: For `COc1cc(C(=O)NCC2(N3CCCCC3)CCCCC2)ccc1OC(F)F`, which activation is on record?
A: The activation was inactive: -1.37%.

Q: With `O=C(NCC1(N2CCOCC2)CCCCC1)c1cc(=O)[nH]c2ccccc12` as the compound, how does the activation read?
A: Its activation is inactive: 5.42%.

Q: For `O=C(NCC1(N2CCCCC2)CCCCC1)c1cccc(C(F)(F)F)c1`, which activation is on record?
A: The activation was inactive: 2.01%.

Q: How did the activation turn out when `O=[N+]([O-])c1cc([N+](=O)[O-])c(NCC2CCS(=O)(=O)C2)c([N+](=O)[O-])c1` (stereo not given) was run?
A: The activation was inactive: 1.43%.

Q: For `O=C(NCC1(N2CCCCC2)CCCCC1)c1cccc([N+](=O)[O-])c1`, which activation is on record?
A: Its activation is inactive: -0.284%.

Q: Which activation does the source give for `CSc1ccc(C(=O)NCC2(N3CCOCC3)CCCCC2)cc1` here?
A: The activation was inactive: 6.95%.

Q: For `N#CC1(Nc2ccccc2)CCN(CCc2ccccc2)CC1`, which activation is on record?
A: The activation was inactive: -4.45%.

Q: With `CCN1CCC(Nc2ccc(Cl)cc2)CC1` as the compound, how does the activation read?
A: Its activation is inactive: 3.17%.

Q: `O=C(NCC1(N2CCCCC2)CCCCC1)c1ccc(OC(F)F)cc1` was tested. Which activation did it give?
A: Its activation is inactive: 3.68%.

Q: With `CCCOc1ccc(C(=O)NCC2(N(C)C)CCCCC2)cc1OC` as the compound, how does the activation read?
A: The activation was inactive: -4.85%.

Q: Which activation does the source give for `COc1ccc2c(c1O)-c1c(O)c(OC)cc3c1[C@H](C2)[N+](C)(C)CC3.O=[N+]([O-])c1cc([N+](=O)[O-])c([O-])c([N+](=O)[O-])c1[O-]` here?
A: The activation was inactive: -1.5%.

Q: How did the activation turn out when `O=C(NCC1(N2CCCCC2)CCCCC1)c1cncc(Br)c1` was run?
A: The activation was inactive: 1.03%.

Q: How did the activation turn out when `O=C(OC1CN2CCC1CC2)c1ccc([N+](=O)[O-])cc1` (stereo not given) was run?
A: The activation was inactive: 2.34%.

Q: `COc1cc(OC)c(C(=O)NCC2(N(C)C)CCCCC2)cc1OC` was tested. Which activation did it give?
A: Its activation is inactive: -3.29%.

Q: Which activation does the source give for `O=[N+]([O-])c1cc([N+](=O)[O-])c(OC2CCCCC2O)c([N+](=O)[O-])c1` (stereo not given) here?
A: Its activation is inactive: -0.53%.

Q: With `CN(C)c1cccc(C(=O)NCC2(N3CCCCC3)CCCCC2)c1` as the compound, how does the activation read?
A: The activation was inactive: 2.01%.

Q: How did the activation turn out when `COc1ccc(CN(CCCl)CCCl)cc1Cl` was run?
A: Its activation is inactive: -3.56%.

Q: For `CC(C)c1ccc(NC2CCN(C(=O)OC(C)(C)C)CC2)cc1`, which activation is on record?
A: The activation was inactive: 19.9%.

Q: `CCOC(=O)N1CCC(Nc2ccc(OC)cc2)CC1` was tested. Which activation did it give?
A: Its activation is inactive: 0.4%.

Q: How did the activation turn out when `O=C(NCC1(N2CCCCC2)CCCCC1)c1ccc(Cl)s1` was run?
A: Its activation is inactive: 7.46%.

Q: Which activation does the source give for `N#CC1(Nc2ccccc2)CCN(Cc2ccccc2)CC1` here?
A: Its activation is inactive: -1.32%.

Q: With `O=C(OC1CN2CCC1CC2)C1c2ccccc2Oc2ccccc21` (stereo not given) as the compound, how does the activation read?
A: The activation was inactive: 1.01%.

Q: For `O=C(NCC1(N2CCOCC2)CCCCC1)c1cc2ccccc2o1`, which activation is on record?
A: The activation was inactive: 7.75%.

Q: For `Cc1cc(C)cc(N(C(=O)c2ccccc2)C2CCN(C(=O)OC(C)(C)C)CC2)c1`, which activation is on record?
A: The activation was inactive: 10.9%.

Q: How did the activation turn out when `O=C(NCC1(N2CCCCC2)CCCCC1)c1ccc(Cl)nc1` was run?
A: Its activation is inactive: 0.199%.

Q: Which activation does the source give for `CSc1ccccc1C(=O)NCC1(N2CCCCC2)CCCCC1` here?
A: Its activation is inactive: 0.351%.

Q: For `O=C(NCC1(N2CCCCC2)CCCCC1)c1cccs1`, which activation is on record?
A: Its activation is inactive: -1.79%.

Q: With `O=C(NCC1(N2CCCCC2)CCCCC1)c1ccc(=O)[nH]c1` as the compound, how does the activation read?
A: The activation was inactive: 0.0286%.

Q: How did the activation turn out when `CC(C)(C)OC(=O)N1CCC(N(C(=O)c2ccccc2)c2ccc(F)cc2)CC1` was run?
A: The activation was inactive: -0.0266%.

Q: `COc1ccc(C(=O)NCC2(N3CCCCC3)CCCCC2)c(OC)c1OC` was tested. Which activation did it give?
A: Its activation is inactive: 3.41%.

Q: Which activation does the source give for `COc1ccc(C(=O)NCC2(N3CCCCC3)CCCCC2)cc1` here?
A: The activation was inactive: -0.926%.

Q: With `Cc1ccc(OCC(C)C)c(CN(CCCl)CCCl)c1` as the compound, how does the activation read?
A: Its activation is inactive: 16.2%.

Q: Which activation does the source give for `CCOC(=O)N1CCC(Nc2cccc(C)c2)CC1` here?
A: The activation was inactive: 19.2%.

Q: With `COc1cc(C(=O)NCC2(N(C)C)CCCCC2)ccc1OC(F)F` as the compound, how does the activation read?
A: The activation was inactive: 1.12%.

Q: `COc1ccc(NC2CCN(CCc3ccccc3)CC2)c(OC)c1` was tested. Which activation did it give?
A: Its activation is inactive: -1.39%.

Q: `CCOC(=O)N1CCC(Nc2ccc(F)cc2)CC1` was tested. Which activation did it give?
A: The activation was inactive: 6.87%.

Q: For `CCCCOc1ccc(C(=O)NCC2(N3CCOCC3)CCCCC2)cc1`, which activation is on record?
A: The activation was inactive: 12.9%.

Q: How did the activation turn out when `O=C(NCC1(N2CCCCC2)CCCCC1)c1ccc(F)cc1` was run?
A: The activation was inactive: 2.8%.

Q: How did the activation turn out when `CCOc1ccc(C)cc1CN(CCCl)CCCl` was run?
A: Its activation is inactive: 0.619%.
